Tests used:
[1] = target: T1, human PD-1 expressed on the surface of cells (NSO cells expressing human PD-1; MNFAT-luc2/PD-1 Jurkat cells) (human, UniProt Q15116 21-288); test: FACS saturation binding to NSO cells expressing PD-1; SM; SD 1.4850
T1 construct: also called cell surface PD-1; PDCD1 transfected NSO cells expressing PD-1

Protein sequences, listed by entry. Tags and fused reporters are not part of them. Residues count along the entry.
UniProt Q15116, 21-288: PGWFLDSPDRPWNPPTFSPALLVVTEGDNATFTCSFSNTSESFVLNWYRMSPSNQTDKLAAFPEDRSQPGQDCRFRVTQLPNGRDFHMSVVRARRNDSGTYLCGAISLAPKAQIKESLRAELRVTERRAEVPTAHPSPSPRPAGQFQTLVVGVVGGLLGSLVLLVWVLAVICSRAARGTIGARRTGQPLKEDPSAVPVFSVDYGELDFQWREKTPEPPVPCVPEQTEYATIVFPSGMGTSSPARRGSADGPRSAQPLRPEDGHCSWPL

[2] = target: T1, human PD-1 expressed on the surface of …; test: FACS: inhibition of sPD-L1 binding to PD-1 on NSO cells; SM; SD 0.3097
[3] = target: T1, human PD-1 expressed on the surface of …; test: FACS: inhibition of sPD-L2 binding to PD-1 on NSO cells; SM; SD 1.8250

B1: DART 1 (bispecific antibody, human IgG1, kappa, L234A L235A)
chain 1: EIVLTQSPATLSLSPGERATLSCRASQSISSYLAWYQQKPGQAPRLLIYDASNRATGIPARFSGSGSGTDFTLTISSLEPEDFAVYYCQQRSNWPLTFGQGTNLEIKGGGSGGGGQVQLVESGGGVVQPGRSLRLDCKASGITFSNSGMHWVRQAPGKGLEWVAVIWYDGSKRYYADSVKGRFTISRDNSKNTLFLQMNSLRAEDTAVYYCATNDDYWGQGTLVTVSSLGGGSGASTKGPSVFPLAPSSKSTSGGTAALGCLVKDYFPEPVTVSWNSGALTSGVHTFPAVLQSSGLYSLSSVVTVPSSSLGTQTYICNVNHKPSNTKVDKRVEPKSCDKTHTCPPCPAPEAAGGPSVFLFPPKPKDTLYITREPEVTCVVVDVSHEDPEVKFNWYVDGVEVHNAKTKPREEQYNSTYRVVSVLTVLHQDWLNGKEYKCKVSNKALPAPIEKTISKAKGQPREPQVYTLPPSREEMTKNQVSLTCLVKGFYPSDIAVEWESNGQPENNYKTTPPVLDSDGSFFLYSKLTVDKSRWQQGNVFSCSVMHEALHNHYTQKSLSLSPG
chain 2: EIVLTQSPATLSLSPGERATLSCRASQSVSSYLAWYQQKPGQAPRLLIYDASNRATGIPARFSGSGSGTDFTLTISSLEPEDFAVYYCQQSSNWPRTFGQGTKVEIKGGGSGGGGQVQLQQWGAGLLKPSETLSLTCAVYGGSFSDYYWNWIRQPPGKGLEWIGEINHNGNTNSNPSLKSRVTLSLDTSKNQFSLKLRSVTAADTAVYYCAFGYSDYEYNWFDPWGQGTLVTVSSLGGGSGRTVAAPSVFIFPPSDEQLKSGTASVVCLLNNFYPREAKVQWKVDNALQSGNSQESVTEQDSKDSTYSLSSTLTLSKADYEKHKVYACEVTHQGLSSPVTKSFNRGEC
EC50 [1]: 2130 nM
IC50 [2]: 1750 nM
IC50 [3]: 2840 nM

Reference: patent US12534531 (MacroGenics, dated 2026)
